Patent publication US20260097037A1, “FUSED RING COMPOUND HAVING GLP-1 RECEPTOR AGONIST EFFECT” (Shionogi & Co., Ltd., priority 2022, published 2026)

Sequences of proteins named here, by UniProt entry; tags and fusion partners are left off. Residues count along the entry.
UniProt P43220, 24-463 limits assumed: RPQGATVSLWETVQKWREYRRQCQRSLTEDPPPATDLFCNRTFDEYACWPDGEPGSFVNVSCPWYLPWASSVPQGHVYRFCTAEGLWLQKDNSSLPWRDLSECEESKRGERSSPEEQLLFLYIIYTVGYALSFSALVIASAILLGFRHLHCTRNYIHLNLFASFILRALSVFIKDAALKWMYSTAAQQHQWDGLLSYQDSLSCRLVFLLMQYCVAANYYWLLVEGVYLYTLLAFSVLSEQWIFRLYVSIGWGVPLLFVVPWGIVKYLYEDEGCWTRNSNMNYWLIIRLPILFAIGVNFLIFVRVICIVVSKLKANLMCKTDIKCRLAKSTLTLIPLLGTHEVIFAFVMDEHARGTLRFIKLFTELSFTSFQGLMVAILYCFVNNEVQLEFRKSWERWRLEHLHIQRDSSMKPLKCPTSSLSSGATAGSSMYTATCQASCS

Target: Human GLP-1 receptor stably expressing cells (hGLP-1R/CHO-K1 cells) (Homo sapiens, UniProt P43220)
Test: Measurement of GLP-1 receptor agonist activity (cAMP assay)
Procedure: Test Example 1: Measurement of GLP-1 Receptor Agonist Activity
Human GLP-1 receptor stably expressing cells (hGLP-1R/CHO-K1 cells) are cultured in an a-MEM medium (Sigma) containing 10% FBS (Hyclone), 2% GlutaMAX (Gibco), 1% G418 (Nacalai Tesque), and 1% Penicillin-Streptomycin Mixed Solution (Sigma) at 37° C. under 5% CO2 conditions, and recovered by treating a 10 fold diluted 5.0 g/1-trypsin/5.3 mmol/1-EDTA solution (Nacalai Tesque) and cryopreserved.
A DMSO solution containing the compound of the present invention or human GLP-1 (7-36) (Phoenix Pharmaceuticals) is dispensed into a 384-well microplate (Greiner) at 62.5 nL/well, and in addition, 400 μM Forskolin (Nacalai Tesque) is dispensed therein at 7.5 nL/well. […] The solution was incubated at 37° C. for 1 hour and intracellular cAMP concentration is measured using cAMP Gs dynamic kit (Cisbio) according to the protocol attached to the product. Specifically, a cAMP-d2/Anti-cAMP-Cryptate (1/1) mixture solution is added in a total amount of 6 μL/well, and is incubated at room temperature for 1 hour, and then, time-resolved fluorescence is measured using PHERAstar (BMG Labtech). […]

SMILES: C[C@H]1c2nc(OCc3ncn(C)n3)c(C(F)(F)F)cc2CCN1Cc1nc2ccc(C(=O)O)cc2n1C[C@@H]1CCO1
- EC50 (increase in cAMP concentration in hGLP-1R/CHO-K1 cells, 37° C. 1 hour): 21.3 nM
- Emax (maximum effect, cAMP with 2 nM human GLP-1 (7-36) = 100%, DMSO only = 0%): 110%
